From ChEMBL document CHEMBL1127849, “Benzisoxazole- and benzisothiazole-3-carboxamides as potential atypical antipsychotic agents” (J Med Chem, 1994)

Chains of the proteins cited; added tags and fusions are not shown.
UniProt P14842, whole entry: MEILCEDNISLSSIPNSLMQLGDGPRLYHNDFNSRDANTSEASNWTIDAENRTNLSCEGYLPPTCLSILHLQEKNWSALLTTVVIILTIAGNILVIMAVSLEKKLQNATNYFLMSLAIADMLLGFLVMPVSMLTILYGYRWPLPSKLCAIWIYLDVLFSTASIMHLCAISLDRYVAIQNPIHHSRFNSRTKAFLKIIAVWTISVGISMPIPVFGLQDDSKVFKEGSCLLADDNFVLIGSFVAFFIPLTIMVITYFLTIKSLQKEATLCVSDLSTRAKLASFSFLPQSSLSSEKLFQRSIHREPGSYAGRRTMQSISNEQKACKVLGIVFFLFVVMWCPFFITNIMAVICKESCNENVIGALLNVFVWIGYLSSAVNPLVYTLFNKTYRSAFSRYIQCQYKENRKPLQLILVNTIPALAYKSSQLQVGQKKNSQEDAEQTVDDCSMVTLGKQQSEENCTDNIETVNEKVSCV

Molecular target: 5-hydroxytryptamine receptor 2A (Rattus norvegicus, UniProt P14842)
Assay: In vitro affinity towards 5-hydroxytryptamine 2A receptor using [3H]spiroperidol as radioligand in cortex

- IC50: 125 nM
SMILES: COc1ccccc1N1CCN(CCCCN(C)C(=O)c2nsc3ccccc23)CC1
